From patent US9862717B2 (Merck Patent GmbH, priority 2014, dated 2018) come the findings set out here.

The chains behind the UniProt entries cited, without tags or fusion partners.
UniProt P49336, whole entry: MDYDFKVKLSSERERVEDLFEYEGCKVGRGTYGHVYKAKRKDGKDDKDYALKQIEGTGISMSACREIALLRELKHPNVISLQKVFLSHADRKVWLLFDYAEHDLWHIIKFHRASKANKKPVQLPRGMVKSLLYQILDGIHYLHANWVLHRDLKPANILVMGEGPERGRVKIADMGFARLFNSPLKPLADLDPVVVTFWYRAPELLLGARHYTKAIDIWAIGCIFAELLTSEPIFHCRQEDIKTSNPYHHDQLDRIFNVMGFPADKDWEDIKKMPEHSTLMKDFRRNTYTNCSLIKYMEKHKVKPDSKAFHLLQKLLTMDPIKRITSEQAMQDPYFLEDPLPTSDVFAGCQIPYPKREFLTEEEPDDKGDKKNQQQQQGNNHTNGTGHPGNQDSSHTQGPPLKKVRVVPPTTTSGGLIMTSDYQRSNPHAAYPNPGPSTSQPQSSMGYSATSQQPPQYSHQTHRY
UniProt P24863, whole entry partner: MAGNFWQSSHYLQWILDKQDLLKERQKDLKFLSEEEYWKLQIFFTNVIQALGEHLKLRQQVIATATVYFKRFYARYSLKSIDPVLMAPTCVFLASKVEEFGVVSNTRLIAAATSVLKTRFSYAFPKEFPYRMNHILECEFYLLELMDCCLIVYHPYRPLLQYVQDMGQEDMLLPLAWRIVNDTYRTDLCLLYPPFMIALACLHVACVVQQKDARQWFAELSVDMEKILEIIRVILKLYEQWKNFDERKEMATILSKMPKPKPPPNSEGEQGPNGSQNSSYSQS

The assay concerns the target CDK8/CycC (Homo sapiens, UniProt P49336). In words: FRET based Lanthascreen binding competition assay for CDK8 inhibitory activity. The note with it: CDK8 co-expressed with CycC; class symbols. On the technique in general: Time-resolved FRET reads energy transfer from a long-lived donor to a nearby acceptor.
A word on the IC50: it is the concentration that gives 50% inhibition. A lower IC50 goes with higher potency. As to `Cc1n[nH]c2cnc(C(=O)N3CCC[C@@H]3c3ccc(Cl)cc3)cc12`, the IC50 fell in the range of 1000 to 10000 nM.
The same measure for `Cc1n[nH]c2ncc(C(=O)N3C[C@@H](C)C[C@H]3c3ccc(C(F)(F)F)cc3)cc12`: 100 to 1000 nM; for `Cc1n[nH]c2ncc(C(=O)N3CC[C@H](C)[C@@H]3c3ccc(C(F)(F)F)cc3)cc12`: 100 to 1000 nM.
